Experimental data as given in ChEMBL document CHEMBL5150028, “Discovery of JNJ-64264681: A Potent and Selective Covalent Inhibitor of Bruton's Tyrosine Kinase” (J Med Chem, 2022).

By UniProt entry, the sequences of proteins in these tests, tags left out. Where a name states a change or a piece, a line headed by the entry shows the natural chain unless it says otherwise.
UniProt Q06187: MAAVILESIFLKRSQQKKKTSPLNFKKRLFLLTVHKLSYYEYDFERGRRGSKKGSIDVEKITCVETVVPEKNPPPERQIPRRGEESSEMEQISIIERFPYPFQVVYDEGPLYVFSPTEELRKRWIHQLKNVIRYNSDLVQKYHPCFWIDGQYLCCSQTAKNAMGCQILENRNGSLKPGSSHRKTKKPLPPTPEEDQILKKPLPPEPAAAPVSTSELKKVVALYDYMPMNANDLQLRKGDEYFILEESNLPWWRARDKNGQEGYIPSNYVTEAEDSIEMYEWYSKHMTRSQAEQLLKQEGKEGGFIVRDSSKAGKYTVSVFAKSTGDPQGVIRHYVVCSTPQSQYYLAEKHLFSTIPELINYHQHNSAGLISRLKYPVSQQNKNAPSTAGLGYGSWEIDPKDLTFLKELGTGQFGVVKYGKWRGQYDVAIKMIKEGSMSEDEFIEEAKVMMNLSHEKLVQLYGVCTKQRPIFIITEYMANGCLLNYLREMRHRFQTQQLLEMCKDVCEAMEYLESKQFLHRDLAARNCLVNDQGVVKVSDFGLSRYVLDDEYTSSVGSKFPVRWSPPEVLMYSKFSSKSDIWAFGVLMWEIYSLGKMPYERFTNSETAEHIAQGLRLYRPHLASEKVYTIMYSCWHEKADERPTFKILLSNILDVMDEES

Molecular target: Tyrosine-protein kinase BTK (Homo sapiens, UniProt Q06187)
Experiment: Inhibition of full length N-terminal GST-tagged human BTK expressed in Sf21 cells assessed as ratio of Kinact/Ki using NH2-KKKAPFSWYLPEEG as substrate in presence of ATP measured for 2 hrs by microplate reader assay

Work on `C=CC(=O)N1CC[C@@H](NC(=O)c2sc3nccc4c3c2NC(=O)N4c2ccc(Oc3ccccc3)cc2C)C1` yielded a Ratio of 15900 M⁻¹ s⁻¹.
